We go through one compound from ChEMBL document CHEMBL5726610, “Quinazolines as potassium ion channel inhibitors” (2019).

By UniProt entry, the sequences of proteins in these tests, tags left out.
UniProt P51617, whole entry: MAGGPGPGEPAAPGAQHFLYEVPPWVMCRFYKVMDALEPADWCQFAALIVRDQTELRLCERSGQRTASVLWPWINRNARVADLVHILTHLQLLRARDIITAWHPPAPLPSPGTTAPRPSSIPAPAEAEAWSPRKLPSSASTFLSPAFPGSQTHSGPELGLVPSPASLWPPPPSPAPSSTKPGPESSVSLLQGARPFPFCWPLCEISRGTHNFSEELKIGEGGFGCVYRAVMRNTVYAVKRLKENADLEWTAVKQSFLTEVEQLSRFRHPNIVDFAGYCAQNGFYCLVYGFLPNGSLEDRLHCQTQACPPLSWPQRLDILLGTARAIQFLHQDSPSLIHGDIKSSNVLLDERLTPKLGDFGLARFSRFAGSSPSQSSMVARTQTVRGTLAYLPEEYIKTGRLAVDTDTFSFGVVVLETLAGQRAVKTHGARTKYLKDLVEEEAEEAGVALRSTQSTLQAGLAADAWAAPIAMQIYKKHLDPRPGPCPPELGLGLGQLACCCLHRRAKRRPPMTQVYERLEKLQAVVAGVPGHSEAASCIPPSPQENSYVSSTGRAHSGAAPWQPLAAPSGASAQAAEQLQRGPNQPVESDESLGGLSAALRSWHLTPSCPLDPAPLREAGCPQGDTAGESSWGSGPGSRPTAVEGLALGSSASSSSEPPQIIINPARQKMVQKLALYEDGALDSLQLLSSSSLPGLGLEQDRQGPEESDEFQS

Test [1] concerns the target T1, Nuclear receptor subfamily 2 group C member 2 (Homo sapiens, UniProt P49116).
T1 sequence (P49116 whole entry): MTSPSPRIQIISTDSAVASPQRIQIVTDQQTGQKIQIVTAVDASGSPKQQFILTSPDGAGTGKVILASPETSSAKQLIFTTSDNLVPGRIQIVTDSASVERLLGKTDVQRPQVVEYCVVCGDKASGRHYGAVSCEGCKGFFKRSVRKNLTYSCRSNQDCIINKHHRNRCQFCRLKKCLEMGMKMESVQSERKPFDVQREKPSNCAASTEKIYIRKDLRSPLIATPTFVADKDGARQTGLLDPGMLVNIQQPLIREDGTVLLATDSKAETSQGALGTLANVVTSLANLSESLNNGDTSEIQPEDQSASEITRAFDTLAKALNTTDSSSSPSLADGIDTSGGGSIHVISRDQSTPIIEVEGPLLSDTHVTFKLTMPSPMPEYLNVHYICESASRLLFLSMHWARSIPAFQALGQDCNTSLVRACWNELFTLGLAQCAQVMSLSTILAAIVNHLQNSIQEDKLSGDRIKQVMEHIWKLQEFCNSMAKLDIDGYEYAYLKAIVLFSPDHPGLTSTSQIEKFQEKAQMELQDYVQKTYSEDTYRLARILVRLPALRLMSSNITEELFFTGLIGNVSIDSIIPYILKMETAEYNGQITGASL
The test can be described thus: Caliper Kinase Assay: The analyses were performed in U-bottom 384-well plates. The final assay volume was 30 μl prepared from 15 μl additions of enzyme and substrates (fluoresceinated peptide and ATP) and test compounds in assay buffer (20 mM HEPES pH 7.4, 10 mM MgCl2, 0.015% Brij35 and 4 mM DTT). The reaction was initiated by the combination of purified protein kinase with substrates and test ….

The target in test [2] is Interleukin-1 receptor-associated kinase 1 (Homo sapiens, UniProt P51617). The test is described as above.

`Oc1nc(-c2cncnc2)nc2cccc(-c3ccccc3)c12.c1ccc(-c2cccc3nc(-c4cncnc4)nc(NCc4ccccn4)c23)cc1`: the IC50 in test [1] and in test [2] was 50 µM throughout.
